This passage reports IC50 results from patent publication US7186743B2, “Substituted pyrazolyl compounds for the treatment of inflammation” (Pharmacia Corporation, priority 2001, dated 2007).

By UniProt entry, the sequences of proteins in these tests, tags left out.
UniProt O14920, whole entry: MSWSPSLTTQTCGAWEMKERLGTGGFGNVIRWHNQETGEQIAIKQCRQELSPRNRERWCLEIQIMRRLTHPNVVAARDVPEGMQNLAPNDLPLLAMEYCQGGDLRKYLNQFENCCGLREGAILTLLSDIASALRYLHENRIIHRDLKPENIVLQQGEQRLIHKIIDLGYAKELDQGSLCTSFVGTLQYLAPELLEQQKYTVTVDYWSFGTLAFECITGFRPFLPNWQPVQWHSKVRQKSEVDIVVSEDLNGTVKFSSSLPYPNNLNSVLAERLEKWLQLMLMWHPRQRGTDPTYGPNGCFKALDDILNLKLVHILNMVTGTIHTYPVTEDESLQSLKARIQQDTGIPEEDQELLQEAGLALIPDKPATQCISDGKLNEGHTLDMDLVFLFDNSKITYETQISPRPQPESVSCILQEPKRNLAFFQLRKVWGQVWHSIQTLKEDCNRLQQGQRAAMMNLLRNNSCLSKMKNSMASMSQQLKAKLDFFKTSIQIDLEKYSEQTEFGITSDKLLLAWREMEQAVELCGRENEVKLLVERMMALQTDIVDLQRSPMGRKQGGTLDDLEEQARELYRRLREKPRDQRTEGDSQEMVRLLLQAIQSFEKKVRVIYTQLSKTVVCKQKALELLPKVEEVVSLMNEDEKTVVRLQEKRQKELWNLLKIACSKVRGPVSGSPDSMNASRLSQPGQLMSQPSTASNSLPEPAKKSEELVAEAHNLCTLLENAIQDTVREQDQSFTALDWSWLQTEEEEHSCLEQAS

In the assay the target is IKK2 (Homo sapiens, UniProt O14920). Kind of assay: IKKβ Resin Enzyme Assay (IKK2 resin). Type of assay: biochemical. To be noted: read-out: IKK2 Resin IC 50; Table 6.

Bounds are passed on as bounds.

Take `NC(=O)c1nn(-c2ccc(F)cc2)c2c1CCc1ccc(NC(=O)c3cc4c(cc3Cl)OCO4)cc1-2`: the IC50 was ≤ 1000 nM.
